Screens deposited in PubChem by several laboratories.
Pemphigus Ab inh: blocks pemphigus antibody binding to human desmoglein-3 | P32926 | DSG3-coupled beads, scFv-anti-DSG3-GFP binding, flow cytometry; stronger effect = lower value | binding (percent of control), % at 10 µM | hit rate 0.48% among 310,000;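 active = binding more than 3 SD below its plate's average and above zero; inconclusive = below that plate limit but binding exactly zero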
PABP polyA inh: blocks human PABP binding to poly(A) RNA; P11940; fluorescence polarization; calls only at 35 µM; hit rate 1% among 290,000; AID 2014;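 also: calls also rest on retests at 20 µM and on dose response follow-up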
UUG fidelity: alters start codon recognition fidelity in yeast | S. cerevisiae UUG-firefly luciferase reporter, luminescence/redox ratio | activity score, % at 18.7 µM | hit rate 0.13% among 350,000 | AID 602363;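 active means replicate mean at a twofold rise or more, about +100% in these data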;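 further: firefly luciferase made from a UUG start codon reports start codon fidelity; reporter light over untreated wells divided by growth signal over untreated wells; some hits fall short of that in this replicate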
MLLE-PAM2 inh: inhibitors of microRNA-mediated deadenylation, human PABP1 MLLE binding; P11940; GST-MLLE / FITC-PAM2 fluorescence polarization; inhibition, % at 20 µM; hit rate 0.36% among 360,000; AID 588489; in the data active = inhibition above about 35%, passing the limit was not always enough;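 also: plate controls were DMSO wells with GST-MLLE for no effect and wells lacking GST-MLLE protein for full effect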
eIF4H inh: inhibitors of RNA binding by human eIF4H | Q15056 | eIF4H fluorescence polarization binding assay | inhibition, % at 35 µM | hit rate 0.94% among 290,000 | AID 2012;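 also: calls also rest on retests at 20 µM and on dose response follow-up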
* hit, by the source's call; i = inactive; ? = inconclusive; . = no result; + = active, no number. An excerpt weighted towards active compounds, which were near 1.5% of everything screened. Unless noted, no rule for the calls is given here.

Pemphigus Ab inh | PABP polyA inh | UUG fidelity | SMILES | MLLE-PAM2 inh | eIF4H inh
. | . | -9 | COCC(=O)Nc1ccc2c(c1)C(=O)N(C)[C@@H]1CC[C@@H](CC(=O)NCc3ccccc3)O[C@@H]1CO2 | . | .
106 | + | 8 | Cc1cc(O)c(C=Nc2ccc(N3CCOCC3)cc2)c(C)c1Cl | -48 | 58
88* | . | -4 | Cc1ccccc1N1CCN(CCN2C(=O)CC(=C3c4ccccc4-c4ccccc43)C2=O)CC1 | 5 | .
110 | + | . | CCn1c(C)[n+](CC)c2ccc(C(=O)N(C)c3ccccc3)cc21 | -113 | -4
89 | + | -6 | CCOC(=O)c1ccc2c(c1)[n+](CC)c(C)n2-c1ccccc1 | -120 | -9
106 | i | . | CCOC(=O)c1ccc2c(c1)n(CC)c(C)[n+]2CC | -125 | -5
96 | + | . | CC[n+]1c(C)n(-c2ccccc2)c2ccc(C(=O)OC)cc21 | -85 | 1
. | . | 12 | C[C@H](CO)N1C[C@H](C)[C@H](CN(C)CC2CC2)Oc2ccc(NC(=O)CCC(F)(F)F)cc2CC1=O | . | .
115 | i | 0 | COC(=O)c1ccccc1NC(=S)NC(=O)c1ccc2c(c1)OCO2 | 42* | -5
. | i | -28 | Cc1ccc(-c2nc3cc(Cl)ccc3o2)cc1 | 4 | -7
72* | i | -20 | Clc1ccc(-c2nc3cc(CN4CCCCC4)ccc3o2)cc1 | 1 | -8
. | . | 10 | C[C@@H]1CN([C@H](C)CO)C(=O)c2cc(NS(C)(=O)=O)ccc2O[C@@H]1CN(C)S(=O)(=O)c1ccc(F)cc1 | . | .
102 | + | . | CC(=O)N1CCc2cc(N=NC3=C(O)CC(C)(C)CC3=O)ccc21 | -95 | 101*
7.6* | i | -16 | CC1CCN(S(=O)(=O)c2ccc(N=NC3=C(O)CC(C)(C)CC3=O)cc2)CC1 | 10 | 3
87* | i | 9 | Cc1cccc(-n2nc3c(c2NC(=O)c2ccco2)CSC3)c1C | 9 | 0
-16* | i | . | CC(C)(C)NC(=O)C(OC(=O)c1cccs1)c1ccc(F)cc1 (configuration not stated) | -3 | 4
97 | i | . | CC(C)(C)NC(=O)C(OC(=O)c1cccs1)c1ccccc1 (configuration not stated) | 2 | 4
73* | + | -11 | Cc1cc(-c2csc(N)n2)c(C)n1C | 22 | 118*
71* | i | . | Cc1cc(-c2csc(N)n2)c(C)n1Cc1ccco1 | -16 | ?
101 | i | -10 | Cc1ccc(-n2c(C)cc(-c3csc(N)n3)c2C)cc1 | -4 | ?
. | . | 5 | CC(C)NC(=O)N1[C@@H]2CN(C(=O)C3CCC3)c3ccccc3[C@@H]2[C@@H]1CO | . | .
. | . | 5 | CC(C)C#Cc1ccc([C@@H]2[C@H](C#N)N(C(=O)CN(C)C)[C@H]2CO)cc1 | . | .
. | . | -6 | CNC[C@H]1OCCCC[C@H](C)Oc2ccc(NS(=O)(=O)c3c(C)noc3C)cc2C(=O)N([C@H](C)CO)C[C@H]1C | . | .
. | . | 9 | C[C@@H]1CCCCO[C@H](CN(C)Cc2ccc3c(c2)OCO3)[C@@H](C)CN([C@@H](C)CO)C(=O)c2cc(NC(=O)c3ccccc3)ccc2O1 | . | .
85* | i | -25 | O=C(COc1cccnc1[N+](=O)[O-])Nc1cc(S(=O)(=O)N2CCCCC2)ccc1Cl | 9 | 5

One compound at a time, from the list above. Order of screens: Pemphigus Ab inh, PABP polyA inh, UUG fidelity, MLLE-PAM2 inh, eIF4H inh
Entry for CNC[C@H]1OCCCC[C@H](C)Oc2ccc(NS(=O)(=O)c3c(C)noc3C)cc2C(=O)N([C@H](C)CO)C[C@H]1C → ., ., -6, ., .
Entry for O=C(COc1cccnc1[N+](=O)[O-])Nc1cc(S(=O)(=O)N2CCCCC2)ccc1Cl → 85*, i, -25, 9, 5
Entry for CC(C)NC(=O)N1[C@@H]2CN(C(=O)C3CCC3)c3ccccc3[C@@H]2[C@@H]1CO → ., ., 5, ., .

Following part
Pemphigus Ab inh | PABP polyA inh | UUG fidelity | SMILES | MLLE-PAM2 inh | eIF4H inh
98 | . | -10 | COc1ccc(S(=O)(=O)N2CCCCCC2)cc1NC(=O)CCNC(=O)c1ccc(Cl)cc1 | -26 | .
50* | . | -6 | COc1ccc(S(=O)(=O)N2CCCCC2)cc1NC(=O)CCNC(=O)c1ccc(Cl)cc1 | -48 | .
. | i | . | Cc1ccc(NC(=O)COc2cccnc2[N+](=O)[O-])cc1S(=O)(=O)N1CCCCC1 | -8 | -8
71* | i | . | CC(=O)OCC(=O)Nc1cc(S(=O)(=O)N2CCCCCC2)ccc1Cl | 3 | -6
61* | i | -13 | O=C(COc1ccc(S(=O)(=O)N2CCCCC2)cc1)NCc1ccncc1 | 8 | 9
. | . | -7 | O=C(N[C@H]1C=C[C@H](CC(=O)N2CCOCC2)O[C@H]1CO)c1cccc(F)c1 | . | .
145 | i | . | O=C(CNCc1ccncc1)Nc1cc(S(=O)(=O)N2CCCCC2)ccc1Cl | -40 | 104*
105 | + | -6 | Cc1ccc(S(=O)(=O)N2CCCCC2)cc1NC(=O)CNCc1ccco1 | 2 | 83*
97 | . | -13 | Cc1ccc(S(=O)(=O)N2CCCCC2)cc1NC(=O)c1ccco1 | -5 | .
97 | i | . | Cc1ccc(S(=O)(=O)N2CCCCC2)cc1NC(=O)c1ccc2c(c1)OCO2 | 13 | 4
101 | i | . | O=C(CNCc1ccccn1)Nc1cc(S(=O)(=O)N2CCCCC2)ccc1Cl | 3 | 3
100 | i | -15 | Cc1ccc(S(=O)(=O)N2CCCCC2)cc1NC(=O)COC(=O)c1ccc2c(c1)OCO2 | -3 | 2.0*
. | . | 8 | CC(C)CC#Cc1cnc2c(c1)C(=O)N([C@@H](C)CO)C[C@H](C)[C@@H](CN(C)Cc1ccc(C(=O)O)cc1)O2 | . | .
92 | . | . | CN1N=C(N)c2cn(C3OC(COP(=O)(O)O)C(O)C3O)c3ncnc1c23 (configuration not stated) | 51* | .
82* | i | -9 | Cc1cc(=O)oc(C)c1C(=O)OCC(=O)c1ccc(Cl)c(Cl)c1 | 3 | -14
108 | i | . | Cc1ccc(C(=O)COC(=O)c2c(C)cc(=O)oc2C)cc1[N+](=O)[O-] | 15 | -6
106 | + | -36 | Cc1c(Cl)cccc1NC(=O)CNC(=O)c1ccccc1F | 5 | 2.4*
. | . | 15 | C[C@@H]1CN([C@@H](C)CO)C(=O)c2cc(NC(=O)CCC(F)(F)F)ccc2O[C@@H](C)CCCCO[C@@H]1CN(C)Cc1ccc(C(=O)O)cc1 | . | .
103 | + | -14 | COc1cc(O)c(C(C)=O)c(CC(=O)O)c1 | 2 | 96*
94 | . | -1 | COc1cc(O)c(C(C)=O)c(OC)c1 | -2 | .
. | . | 4 | CCCC#Cc1ccc2c(c1)O[C@@H](CN(C)C(=O)Nc1ccc(OC)cc1)[C@@H](C)CN([C@@H](C)CO)S2(=O)=O | . | .
97 | i | -8 | CC(=O)Nc1ccc2ccc3cccc4ccc1c2c34 | 2 | 60*
90 | + | . | COc1ccccc1CNC(=O)C(=O)NCC1CCCO1 (configuration not stated) | -9 | active
77* | i | -11 | COc1ccccc1-c1nc(C(=O)NCC2CCCO2)cc2c1[nH]c1ccccc12 (configuration not stated) | -5 | -9
95 | i | -10 | COc1cc(-c2nc(C(=O)NCC3CCCO3)cc3c2[nH]c2ccccc23)cc(OC)c1OC (configuration not stated) | -11 | 12
98 | i | -2 | COc1ccccc1CC(=O)NCC1CCCO1 (configuration not stated) | 9 | -5
. | . | 7 | COc1ccc(CN(C)C[C@@H]2Oc3c(NS(=O)(=O)c4ccc(OC)cc4)cccc3C(=O)N([C@@H](C)CO)C[C@H]2C)cc1 | . | .
. | . | -38 | OC[C@H]1[C@@H](c2ccc(-c3ccncc3)cc2)[C@@H]2CN(Cc3ccccn3)CCCCN12 | . | .

2 entries from above, as tab-separated lines.
compound	Pemphigus Ab inh	PABP polyA inh	UUG fidelity	MLLE-PAM2 inh	eIF4H inh
Cc1ccc(NC(=O)COc2cccnc2[N+](=O)[O-])cc1S(=O)(=O)N1CCCCC1	.	i	.	-8	-8
Cc1ccc(S(=O)(=O)N2CCCCC2)cc1NC(=O)CNCc1ccco1	105	+	-6	2	83*
